One molecule from ChEMBL document CHEMBL4364248, “Discovery of 1,2,4-oxadiazole-Containing hydroxamic acid derivatives as histone deacetylase inhibitors potential application in cancer therapy” (Eur J Med Chem, 2019) can be followed below.

This assay concerns the target T1, Histone deacetylase 8 (Homo sapiens, UniProt Q9BY41).
T1 sequence (Q9BY41 whole entry): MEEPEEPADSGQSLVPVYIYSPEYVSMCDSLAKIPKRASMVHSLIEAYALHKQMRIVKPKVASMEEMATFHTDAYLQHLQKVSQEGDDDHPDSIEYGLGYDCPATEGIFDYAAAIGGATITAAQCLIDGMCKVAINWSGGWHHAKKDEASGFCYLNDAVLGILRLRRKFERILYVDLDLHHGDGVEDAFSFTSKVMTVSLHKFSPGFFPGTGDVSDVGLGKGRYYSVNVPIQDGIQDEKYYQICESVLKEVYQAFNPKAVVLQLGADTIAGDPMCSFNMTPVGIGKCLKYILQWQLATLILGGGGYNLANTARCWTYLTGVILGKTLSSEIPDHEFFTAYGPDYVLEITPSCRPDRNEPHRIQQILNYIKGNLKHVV
As to the kind of experiment: Inhibition of recombinant full length C-terminal His-tagged human HDAC8 expressed in baculovirus infected in Sf9 cells using Ac-peptide-AMC as substrate after 1 hr by fluorescence assay.

`O=C(CCCCCCC(=O)Nc1ccccc1)NO` [VORINOSTAT]: the IC50 is 682 nM.

What is called IC50 is the concentration at which inhibition is half-maximal.
